Test results taken from paper PMC9822402, “Investigation on Hydrazonobenzenesulfonamides as Human Carbonic Anhydrase I, II, IX and XII Inhibitors” (Molecules, 2022).

Sequences of proteins named here, by UniProt entry; tags and fusion partners are left off. Residues count along the entry.
UniProt P00915, 2-261: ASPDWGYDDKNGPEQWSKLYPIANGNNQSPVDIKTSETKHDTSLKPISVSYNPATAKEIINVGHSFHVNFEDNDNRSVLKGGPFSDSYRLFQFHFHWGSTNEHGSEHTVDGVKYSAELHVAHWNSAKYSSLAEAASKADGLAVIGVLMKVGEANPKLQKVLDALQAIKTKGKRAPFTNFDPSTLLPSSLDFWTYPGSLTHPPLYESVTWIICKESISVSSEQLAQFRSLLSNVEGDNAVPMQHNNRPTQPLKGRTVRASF

Legend:
hCA I = biological target: T1, hCA I (Homo sapiens, UniProt P00915); assay: stopped-flow CO2 hydrase assay; assay type: biochemical; conditions: CO2 […]; […] HEPES pH […] Na2SO4, phenol red; […] min preincubation at room temperature; read-out: KI (nM) ^1 / CAI
T1 construct: gene CA1; recombinant, obtained in-house

hCA II = biological target: T2, hCA II (Homo sapiens, UniProt P00918); assay: stopped-flow CO2 hydrase assay; assay type: biochemical; conditions: CO2 […]; […] HEPES pH […] Na2SO4, phenol red; […] min preincubation at room temperature; read-out: KI (nM) ^1 / CAII
T2 construct: gene CA2; recombinant, obtained in-house
From the text: stopped-flow CO2 hydrase assay on hCA II

Row | Substance | Ki (hCA I) [nM] | Ki (hCA II) [nM]
1 | (E)-4-(4-(2-(4-(diethylamino)benzylidene)hydrazinecarbonyl)piperidine-1-carbonyl)benzenesulfonamide [compound 29] | 45 | 4.27
2 | (E)-4-(4-(2-(4-(dimethylamino)benzylidene)hydrazinecarbonyl)piperidine-1-carbonyl)benzenesulfonamide [compound 28] | 1060 | 5.39
